Source: patent publication US10391081B2, “FGFR gatekeeper mutant gene and drug targeting same” (CHUGAI SEIYAKU KABUSHIKI KAISHA, priority 2013, dated 2019)

Chains of the proteins cited; added tags and fusions are not shown. A line that says so, or that is headed by a name, gives the form on record, which may keep a tag or linker. Residues count along the entry.
UniProt P21802, with tags, fused parts or gaps V564F: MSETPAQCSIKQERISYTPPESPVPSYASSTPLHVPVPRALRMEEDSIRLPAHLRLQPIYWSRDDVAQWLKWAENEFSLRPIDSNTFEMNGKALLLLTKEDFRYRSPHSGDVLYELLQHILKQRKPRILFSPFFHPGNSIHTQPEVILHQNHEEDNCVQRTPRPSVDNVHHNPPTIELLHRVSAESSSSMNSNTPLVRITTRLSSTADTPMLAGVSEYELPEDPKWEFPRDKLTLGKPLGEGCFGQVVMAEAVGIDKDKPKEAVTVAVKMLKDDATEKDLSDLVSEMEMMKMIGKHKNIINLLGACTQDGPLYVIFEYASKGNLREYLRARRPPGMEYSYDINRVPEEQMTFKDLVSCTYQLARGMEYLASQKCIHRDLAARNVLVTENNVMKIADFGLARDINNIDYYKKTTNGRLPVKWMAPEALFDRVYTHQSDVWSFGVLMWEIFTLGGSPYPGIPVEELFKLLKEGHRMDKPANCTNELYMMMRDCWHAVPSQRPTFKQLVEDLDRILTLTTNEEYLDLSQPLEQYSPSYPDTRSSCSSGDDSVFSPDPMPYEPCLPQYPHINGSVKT
UniProt P21802, 22-821 V564F: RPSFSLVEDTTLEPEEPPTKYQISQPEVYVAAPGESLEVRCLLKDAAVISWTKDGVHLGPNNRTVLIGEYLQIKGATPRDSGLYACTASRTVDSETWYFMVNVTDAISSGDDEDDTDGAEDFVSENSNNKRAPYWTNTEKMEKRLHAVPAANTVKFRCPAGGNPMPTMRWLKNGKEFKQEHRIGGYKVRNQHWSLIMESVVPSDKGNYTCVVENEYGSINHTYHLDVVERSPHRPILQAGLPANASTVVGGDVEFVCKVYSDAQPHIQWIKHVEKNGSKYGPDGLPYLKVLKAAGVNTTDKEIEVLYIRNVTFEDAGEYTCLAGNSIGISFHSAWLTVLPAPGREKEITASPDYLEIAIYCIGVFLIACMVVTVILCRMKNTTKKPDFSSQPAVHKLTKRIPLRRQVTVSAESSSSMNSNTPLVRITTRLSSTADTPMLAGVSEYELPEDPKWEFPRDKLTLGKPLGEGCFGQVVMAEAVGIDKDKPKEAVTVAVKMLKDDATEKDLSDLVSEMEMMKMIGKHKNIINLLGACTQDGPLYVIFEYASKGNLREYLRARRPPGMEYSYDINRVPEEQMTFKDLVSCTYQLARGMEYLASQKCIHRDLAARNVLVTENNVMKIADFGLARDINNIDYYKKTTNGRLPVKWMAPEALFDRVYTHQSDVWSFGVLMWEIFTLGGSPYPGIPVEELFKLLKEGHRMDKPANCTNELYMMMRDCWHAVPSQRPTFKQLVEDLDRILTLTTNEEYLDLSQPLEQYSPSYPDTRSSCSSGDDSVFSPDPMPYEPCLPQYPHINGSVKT

How the values were obtained:
[1] = target: T1, TEL-fused FGFR2 V564F mutant polypeptide (Homo sapiens, UniProt P21802, V564F); settings: mouse, in vivo
[2] = target: T2, FGFR2 V564F mutant polypeptide (Homo sapiens, UniProt P21802, V564F)
[3] = target: T2, FGFR2 V564F mutant polypeptide; remark: listed apart in the source
[4] = target: tumor cells that express the TEL-fused FGFR2 V564F mutant polypeptide (Homo sapiens, UniProt P21802, V564F); settings: mouse, in vivo, po
[5] = target: T1, TEL-fused FGFR2 V564F mutant polypeptide; assay: In vitro cell proliferation inhibition (WST-8), Ba/F3 strain stably expressing TEL-fused FGFR2 V564F mutant

Structure (SMILES)	inhibitory effect on phosphorylation in tumors compared to mice carrying tumor cells expressing TEL-fused wild-type FGFR2 [1]	IC50 RATIO RELATIVE TO WT FGFR2 [2]	cell proliferation-inhibiting activity compared to the strain stably expressing wild-type FGFR2 [2]	phosphorylation inhibitory effect compared to that on the wild-type FGFR2 polypeptide [3]	tumor proliferation-inhibiting activity compared to mice carrying tumor cells expressing TEL-fused wild-type FGFR2 [4]	cell proliferation-inhibiting activity compared to the strain stably expressing TEL-fused wild-type FGFR2 [5]
Cc1nc2ccc(-n3ncc(C(=O)c4cc5ccccc5[nH]4)c3N)cc2[nH]1 [Compound A]	hardly any change	1.9	hardly any change	did not reduce much	hardly any change	hardly any change
CCN(CC)CCCCNc1ncc2cc(-c3cc(OC)cc(OC)c3)c(NC(=O)NC(C)(C)C)nc2n1 [Compound B, PD173074, reference compound]		90	greatly weakened			greatly weakened
